Measured affinities in a library of Ab-14 heavy chain variants

The target is the same throughout: PDVDLGDISGINAS, from the HR2 region of SARS-CoV-2 spike.

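Phage display of a naive human antibody library on the peptide gave the parent. Designed CDR sequences, proposed from the first random library and measured here. Their group label is 14H_En_HC (En: ensemble of fine-tuned language models; HC: hill climbing; a sequence that several methods proposed may carry one label only). Affinity was read by AlphaSeq, a pooled yeast mating assay with surface-displayed partners. Mating (16 h, 30 °C) was followed by selection of diploids and sequencing of their barcodes. The ratio of observed to expected reads was calibrated, replicate by replicate, on BCL2-family standards whose Kd was known from biolayer interferometry. There are six technical replicates.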

The variants keep the light chain, the linker and the frameworks of Ab-14 (scFv order VH, a (GGGGS)3 linker, VL).
VH: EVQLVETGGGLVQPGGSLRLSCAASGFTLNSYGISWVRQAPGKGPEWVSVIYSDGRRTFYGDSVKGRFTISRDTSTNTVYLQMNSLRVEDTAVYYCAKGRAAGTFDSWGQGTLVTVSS
VL: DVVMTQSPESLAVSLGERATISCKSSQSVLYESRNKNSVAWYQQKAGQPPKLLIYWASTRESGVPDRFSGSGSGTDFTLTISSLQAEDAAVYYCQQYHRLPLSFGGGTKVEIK

Each variant is given by its three heavy chain CDRs, as the data file delimits them; those of the parent are GFTLNSYGIS, VIYSDGRRTFYGDSVK, GRAAGTFDS.
Affinities are written as log10 Kd with Kd in nM; a lower number is a better binder.
A mean of the replicates is given; it leaves out those without a signal.
Where no diploid with the target was found in that replicate, the entry reads "nd": below detection, most likely a poor binder, though not proof of it.
Of ten entries with the parent sequence, four were seen in most replicates (averages 0.34 to 2.37), three in one and three in none, so single entries are noisy.
Values of this round are not directly comparable with the first-round values of the same sequences.
The authors averaged sequences with at least three values out of six and counted those with two or fewer as poor binders.
Empty control strains, which show no peptide, gave a signal in 1% of pairings with all heavy chain designs; the median was 2.08 and 95% of these signals were weaker than 0.84. No background was subtracted. The control count says in how many pairings with the empty strains this scFv gave a signal.

With GFDLDEYGIS | VIYADGMRTFYADSVK | GNIAGTFSS the result was -0.53, -0.60, -0.63, -0.83, -0.63, -0.48 (mean -0.62; controls 1 of 18).
With GFDLNEYGIS | VIYADGRRTFYTDSVK | GTNAGTFDQ the result was 0.63, 0.37, 0.54, 0.49, 0.37, 0.73 (mean 0.52; controls 0 of 18).
With GFDLNEYGIS | VIYADGRRTAYSDSVK | GENAGTFDF the result was 0.01, -0.44, -0.33, -0.50, -0.12, -0.28 (mean -0.28; controls 0 of 18).
With GFDLNEYGIS | VIYADGVRTSYIDSVK | GNVAGTFDT the result was -0.27, -0.45, -0.39, -0.52, -0.46, -0.31 (mean -0.40; controls 2 of 18).
With GFDLNEYGIS | VIYADGRRTFYADSVK | GKVAGTFNV the result was -0.14, -0.38, -0.27, -0.57, -0.42, -0.07 (mean -0.31; controls 0 of 18).
With GFDLNEYGIS | VIYADGRRTFYADSVK | GQLAGTFTV the result was -0.33, -0.32, -0.56, -0.77, -0.36, -0.39 (mean -0.46; controls 3 of 18).
With GFDLDEYGIS | VIYADGRRTFYADSVK | GQNAGTFDT the result was -0.66, -0.61, -0.76, -0.87, -0.72, -0.53 (mean -0.69; controls 0 of 18).
With GFDLDEYGIS | VIYADGMRTFYADSVK | GNIAGTFFS the result was -0.26, -0.21, -0.65, -0.61, -0.49, -0.30 (mean -0.42; controls 0 of 18).
With GFDLNEYGIS | VIYADGKRTFYSDSVK | GNAGGTFDQ the result was nd, 0.70, 1.73, nd, 0.83, 0.35 (mean 0.90; controls 0 of 18).
With GFDLNEYGIS | VIYADGRRTFYADSVK | GQNAGTFSS the result was 0.15, 0.10, -0.23, 0.17, 0.11, 0.17 (mean 0.08; controls 0 of 18).
With GFDLNEYGIS | VIYADGVRTFYADSVK | GETAGTFDS the result was 0.26, 0.10, 0.09, -0.27, 0.26, -0.08 (mean 0.06; controls 0 of 18).
With GFNLDEYGIS | VIYADGRRTFYADSVK | GQVAGTFDM the result was -0.30, -0.55, -0.66, -0.62, -0.79, -0.48 (mean -0.57; controls 1 of 18).
With GFDLNEYGIS | VIYADGMRTQYIDSVK | GEAAGTFDL the result was -0.46, -0.52, -0.31, -0.33, -0.63, -0.14 (mean -0.40; controls 0 of 18).
With GFDLNEYGIS | VIYADGMRTFYADSVK | GEVAGTFDS the result was -0.72, -0.56, -0.55, -0.56, -0.66, -0.63 (mean -0.61; controls 0 of 18).
With GFDLNEYGIS | VIYADGKRTQYIDSVK | GEVAGTFDA the result was -0.39, -0.06, -0.67, -0.03, 0.09, 0.32 (mean -0.12; controls 0 of 18).
With GFDLNEYGIS | VIYADGKRTFYADSVK | GQTAGTFDS the result was -0.61, -0.23, -0.57, -0.58, -0.74, -0.57 (mean -0.55; controls 0 of 18).
With GFDLNEYGIS | VIYADGRRTAYSDSVK | GEVAGTFVI the result was -1.02, nd, -1.14, -0.92, nd, -0.46 (mean -0.88; controls 0 of 18).
With GFDLNEYGIS | VIYADGKRKFYADKVK | GENAGTFDV the result was -1.20, -1.05, -1.14, -1.66, -1.41, -0.53 (mean -1.16; controls 0 of 18).
With GFNLDEYGIS | VIYADGRRTFYADSVK | GQVAGTFLT the result was 0.24, -0.40, -0.36, -0.72, -0.53, -0.24 (mean -0.33; controls 0 of 18).
With GFDLNEYGIS | VIYADGRRTYYIDSVK | GEVAGTFDA the result was -0.27, -0.53, -0.80, -0.94, -0.85, -0.65 (mean -0.67; controls 0 of 18).
With GFDINEYGIS | VIYADGRRTFYTDSVK | GENAGTFDV the result was -0.41, -0.02, -0.39, -0.92, -0.88, -0.30 (mean -0.49; controls 0 of 18).
With GFDLNEYGIS | VIYADGRRTFYADSVK | GNQAGTFDQ the result was -0.40, -0.61, -0.64, -0.78, -0.59, -0.49 (mean -0.58; controls 1 of 18).
With GFDLNEYGIS | VIYADGRRTQYIDSVK | GEIAGTFDN the result was 2.11, 0.92, 0.64, 1.07, 0.91, 1.27 (mean 1.15; controls 0 of 18).
With GFDLNEYGIS | VIYADGRRTQYIDSVK | GNVAGTFDM the result was -0.18, -0.51, -0.38, -0.40, -0.13, 0.08 (mean -0.25; controls 0 of 18).
With GFDLDEYGIS | VIYADGRRTFYADSVK | GELAGTFFT the result was 0.36, -0.01, -0.44, -0.55, 0.76, 0.28 (mean 0.07; controls 0 of 18).
With GFDLNDYGIS | VIYADGRRTQYIDSVK | GNQAGTFDV the result was nd, nd, nd, nd, nd, 2.72 (controls 0 of 18).
With GFDLNEYGIS | VIYADGRRTFYSDSVK | GGVAGTFDV the result was -0.95, -0.96, -1.04, -1.11, -0.75, -0.64 (mean -0.91; controls 0 of 18).
With GFDLEEYGIS | VIYADGKRTFYSDSVK | GEAAGTFDV the result was 0.27, 0.13, -0.32, -0.39, -0.23, -0.27 (mean -0.13; controls 0 of 18).
With GFSLDEYGIS | VIYADGMRTFYADDVK | GNVAGTFDV the result was -0.54, -0.53, -0.45, -0.67, -0.55, -0.26 (mean -0.50; controls 1 of 18).
With GFDLESYGIS | VIYADGSRTAYADSVK | GNVAGTFDS the result was -0.45, 0.32, 0.10, 0.07, 0.47, 0.55 (mean 0.18; controls 0 of 18).
With GFDLNEYGIS | VIYADGRRTFYADSVK | GEIAGTFDL the result was -0.37, -0.02, -0.32, -0.43, -0.42, -0.20 (mean -0.29; controls 0 of 18).
With GFDLNEYGIS | VIYADGMRTQYSDSVK | GNAAGTFDV the result was nd, nd, nd, nd, nd, nd (controls 0 of 18).
With GFDLNEYGIS | VIYADGRRTQYIDSVK | GEIAGTFDM the result was -0.53, -0.31, -1.00, -0.26, -0.54, -0.28 (mean -0.49; controls 0 of 18).
With GFDLNEYGIS | VIYADGRRTFYSDSVK | GQTAGTFDA the result was -0.37, -0.21, -0.57, -0.76, -0.36, -0.23 (mean -0.41; controls 0 of 18).
With GFDLNEYGIS | VIYADGKRTAYSDSVK | GNAGGTFDV the result was 0.17, 0.10, -0.09, -0.20, 0.88, 0.00 (mean 0.14; controls 0 of 18).
With GFDLNEYGIS | VIYADGMRTFYSDSVK | GEIAGTFDS the result was 0.06, -0.08, -0.26, -0.27, -0.19, -0.12 (mean -0.14; controls 1 of 18).
With GFDLNEYGIS | VIYADGRRTFYADSVK | GEAAGTFVS the result was 0.54, 0.54, -0.11, 0.19, 0.05, 0.59 (mean 0.30; controls 0 of 18).
With GFDLEDYGIS | VIYADGRRTFYSDSVK | GEIAGTFDI the result was -0.05, -0.06, -0.02, -0.12, 0.09, 0.33 (mean 0.03; controls 0 of 18).
With GFDLDEYGIS | VIYADGRRTFYADSVK | GENAGTFFS the result was 0.64, 0.83, 0.90, 0.30, 1.27, 0.75 (mean 0.78; controls 0 of 18).
With GFDLNEYGIS | VIYADGLRTVYADSVK | GQNAGTFDQ the result was -0.81, -0.10, 0.06, -0.63, -0.56, -0.23 (mean -0.38; controls 0 of 18).
With GFDLNEYGIS | VIYADGQRTFYADSVK | GQNAGTFDQ the result was -0.73, -0.34, -0.97, -1.35, -1.00, -0.91 (mean -0.88; controls 0 of 18).
With GFDLNEYGIS | VIYADGRRTFYTDSVK | GNFAGTFDQ the result was -0.10, -0.63, -0.72, -0.55, -0.73, -0.36 (mean -0.52; controls 0 of 18).
With GFDLNEYGIS | VIYADGRRTFYVDSVK | GHNAGTFDV the result was -0.85, -0.57, -0.83, -0.83, -0.53, -0.71 (mean -0.72; controls 0 of 18).
With GFDLNEYGIS | VIYADGRRTYYIDSVK | GEQAGTFDV the result was -0.59, -0.21, -0.30, -0.68, -0.58, -0.33 (mean -0.45; controls 0 of 18).
With GFDLNEYGIS | VIYADGMRTFYTDSVK | GEFAGTFDV the result was 0.19, 0.24, 0.12, -0.18, 0.09, 0.32 (mean 0.13; controls 1 of 18).
With GFDLNEYGIS | VIYADGRRTFYADSVK | GGEAGTFDM the result was -0.59, -0.23, -0.48, -0.64, -0.61, -0.11 (mean -0.44; controls 0 of 18).
With GFDLNEYGIS | VIYADGRRSFYADSVK | GQLAGTFDL the result was -0.56, -0.49, -0.60, -0.39, -0.62, -0.27 (mean -0.49; controls 0 of 18).
With GFDLNEYGIS | VIYADGRRTFYQDSFK | GETAGTFDQ the result was -0.37, -0.67, -0.47, -0.53, -0.34, -0.16 (mean -0.42; controls 1 of 18).
With GFDLNEYGIS | VIYADGFRTFYTDSVK | GEVAGTFDM the result was 0.00, -0.42, -0.01, -0.45, -0.34, -0.25 (mean -0.25; controls 1 of 18).
With GFDLNEYGIS | VIYADGQRTAYADSVK | GKAAGTFDK the result was -0.56, -0.57, -0.57, -0.58, -0.59, -0.44 (mean -0.55; controls 0 of 18).
With GFDLEEYGIS | VIYADGRRTFYSDSVK | GEIAGTFDV the result was nd, nd, -0.68, nd, -0.44, -1.49 (mean -0.87; controls 0 of 18).

The closing 7 entries, repeated:

CDR-H1,CDR-H2,CDR-H3,"log10 Kd, replicates",mean log10 Kd (nM),empty controls
GFDLNEYGIS,VIYADGMRTFYTDSVK,GEFAGTFDV,"0.19, 0.24, 0.12, -0.18, 0.09, 0.32",0.13,1/18
GFDLNEYGIS,VIYADGRRTFYADSVK,GGEAGTFDM,"-0.59, -0.23, -0.48, -0.64, -0.61, -0.11",-0.44,0/18
GFDLNEYGIS,VIYADGRRSFYADSVK,GQLAGTFDL,"-0.56, -0.49, -0.60, -0.39, -0.62, -0.27",-0.49,0/18
GFDLNEYGIS,VIYADGRRTFYQDSFK,GETAGTFDQ,"-0.37, -0.67, -0.47, -0.53, -0.34, -0.16",-0.42,1/18
GFDLNEYGIS,VIYADGFRTFYTDSVK,GEVAGTFDM,"0.00, -0.42, -0.01, -0.45, -0.34, -0.25",-0.25,1/18
GFDLNEYGIS,VIYADGQRTAYADSVK,GKAAGTFDK,"-0.56, -0.57, -0.57, -0.58, -0.59, -0.44",-0.55,0/18
GFDLEEYGIS,VIYADGRRTFYSDSVK,GEIAGTFDV,"nd, nd, -0.68, nd, -0.44, -1.49",-0.87,0/18

From the AlphaSeq antibody data of Li et al. 2023 (doi:10.1038/s41467-023-39022-2), copy in the FLAb collection.